# Literature values, collected in patent publication US20200003762A1, “Diagnostics Platform for Mitochondrial Dysfunctions/Diseases” (BioElectron Technology Corporation, priority 2018, published 2020).
# Sequences of proteins named here, by UniProt entry; tags and fusion partners are left off. A change or cut given only in a name is not applied to a line headed by its entry.
# UniProt P00156: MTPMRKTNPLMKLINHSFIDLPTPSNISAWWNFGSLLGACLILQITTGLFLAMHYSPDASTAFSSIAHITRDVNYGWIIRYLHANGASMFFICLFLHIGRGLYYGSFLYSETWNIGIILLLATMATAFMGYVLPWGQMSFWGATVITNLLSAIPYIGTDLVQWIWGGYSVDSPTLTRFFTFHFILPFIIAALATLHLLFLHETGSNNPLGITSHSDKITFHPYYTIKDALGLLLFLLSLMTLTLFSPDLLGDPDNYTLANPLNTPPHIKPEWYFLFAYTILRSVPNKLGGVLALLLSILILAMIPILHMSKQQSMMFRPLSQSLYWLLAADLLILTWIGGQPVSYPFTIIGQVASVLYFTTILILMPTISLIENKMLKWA
# Molecular target: complex III (Homo sapiens, UniProt P00156)
# Settings: cited from earlier work
substance,measurement,value
Antimycin A from Streptomyces sp. [A8674],electron transfer at complex III,Inhibits electron transfer at
